# Apparent affinities of Ab-14 variants for a coronavirus HR2 peptide

From the AlphaSeq antibody data of Engelhart et al. 2022 (doi:10.1038/s41597-022-01779-4), copy in the FLAb collection.

Binding partner: SARS-CoV-2 spike HR2 peptide, sequence PDVDLGDISGINAS.

Parent: Ab-14, a human scFv built as VH, the linker GGGGSGGGGSGGGGS, VL. Only the CDRs of the light chain vary.
VH: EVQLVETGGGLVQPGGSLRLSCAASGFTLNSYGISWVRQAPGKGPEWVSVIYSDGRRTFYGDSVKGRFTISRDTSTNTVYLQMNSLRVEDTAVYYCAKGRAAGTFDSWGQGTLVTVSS
VL: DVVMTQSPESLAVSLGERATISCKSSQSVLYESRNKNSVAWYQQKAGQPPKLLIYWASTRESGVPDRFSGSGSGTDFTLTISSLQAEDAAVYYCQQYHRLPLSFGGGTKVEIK

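The starting antibody came from a phage panning campaign against this peptide. Library AAYL50 holds single substitutions and randomly drawn double and triple substitutions in the CDRs. The scFvs were displayed on barcoded MATa yeast, the peptide on MATalpha yeast. Mating (16 h, 30 °C) was followed by selection of diploids and sequencing of their barcodes. Read counts were normalised to the haploid input and turned into Kd by a linear fit to BCL2-family pairs of known affinity, for each replicate. Each pool was mated in three replicate cultures.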

Changes read parent residue, position, new residue, counted from the first residue of the VL shown. Numbers give log10(Kd / nM), so 0 is 1 nM and 3 is 1 µM. Smaller is tighter. Where no diploid with the target was found in that replicate, the entry reads "nd": below detection, most likely a poor binder, though not proof of it. In this assay the parent's reference entry averaged 0.65; its copy inside this library read 1.68. Empty control strains, which show no peptide, gave a signal in 18% of pairings with library AAYL50; the median was 4.19 and 95% of these signals were weaker than 2.99. No background was subtracted. The control count says in how many pairings with the empty strains this scFv gave a signal, with their mean in brackets.

changes,log10 Kd (nM) by replicate,empty controls
S25M/Q27D/V29G,0.12 / 0.47 / 0.24,0 of 9
L30C/Y31S/S103C,5.58 / 4.83 / 6.11,8 of 9 (4.48)
V29W/L30Q/W56R,0.60 / 0.80 / 0.86,2 of 9 (5.54)
S25H/L30W/R99Y,nd / nd / 3.33,0 of 9
A40E/W56I/S62A,nd / nd / 6.28,2 of 9 (4.95)
S25T/N37E/Q95M,nd / nd / nd,0 of 9
N37E/Q95I/R99C,nd / 3.77 / 4.85,3 of 9 (4.38)
E32F/V39E/S62C,4.76 / nd / nd,5 of 9 (4.83)
S26Y/R34F/T59P,nd / 2.60 / nd,0 of 9
V39L/R99N/P101C,1.42 / 2.06 / 1.14,1 of 9 (2.67)
N35I/S58F/S62I,4.21 / nd / nd,0 of 9
K24N/S25C/K36M,4.60 / 3.25 / nd,3 of 9 (4.49)
E32W/A40N/Q96V,3.73 / 5.10 / nd,2 of 9 (4.39)
V29G/R34A/W56A,-0.56 / -0.02 / -0.29,2 of 9 (4.02)
R34K/W56P/Y97G,5.29 / nd / 4.07,4 of 9 (4.76)
K36A/V39E/A57I,nd / nd / 5.45,1 of 9 (4.10)
S38Q/S62D/P101S,nd / nd / nd,2 of 9 (3.51)
S26E/S58H/E61L,1.23 / 1.15 / 1.39,0 of 9
Y31T/Q96N/L102N,0.13 / 0.48 / 0.23,0 of 9
S28P/S103D,1.02 / 1.30 / 1.61,2 of 9 (3.10)
L30P,0.96 / 1.16 / 1.12,5 of 9 (4.63)
W56Q/Y97H/S103Y,2.82 / 2.21 / 2.94,5 of 9 (3.75)
S25K/S33T/N37H,nd / nd / nd,0 of 9
Q27D/S58P,nd / nd / nd,0 of 9
R34Y/N35I/L102G,1.36 / 1.48 / 1.54,5 of 9 (4.65)
S28C/R60G/L102H,6.05 / nd / nd,5 of 9 (4.49)
W56E/Q96T/L102D,0.01 / 0.38 / 0.19,1 of 9 (5.28)
Y97N/P101M/S103N,nd / nd / nd,2 of 9 (4.26)
S33Q/S62Y/Y97S,nd / nd / nd,1 of 9 (4.50)
K36I/E61P/P101C,4.29 / nd / 3.49,2 of 9 (3.07)
S33L/V39E/T59V,nd / nd / nd,3 of 9 (3.69)
S25G/N35F/S62C,2.66 / 2.77 / 2.63,4 of 9 (3.87)
K24W/S28R/Y97S,4.35 / nd / 4.46,2 of 9 (4.27)
W56C/E61T,3.57 / nd / 4.03,3 of 9 (4.00)
S25R/E61L/Q96F,4.75 / 2.66 / 2.33,2 of 9 (4.37)
R60H/Y97E/P101G,3.68 / 2.98 / nd,4 of 9 (4.08)
R34V/Q95T/P101C,nd / nd / nd,1 of 9 (3.64)
S25P/L30K/E32P,nd / 2.24 / 3.51,0 of 9
T59S/Y97G/H98K,nd / nd / nd,1 of 9 (4.52)
S28P/E32I/A57S,nd / 2.58 / nd,0 of 9
L30P/K36V/Q96K,nd / nd / 3.85,5 of 9 (3.87)
L30C/S33W/K36A,1.01 / 1.10 / 1.07,2 of 9 (5.11)
S25F/Y31S/Y97T,5.71 / nd / nd,0 of 9
S33C/P101E/S103A,nd / nd / 4.14,3 of 9 (4.53)
Y31Q/N37T/T59Y,2.55 / nd / nd,1 of 9 (3.01)
S33A/R34I/P101Y,nd / 3.59 / nd,0 of 9
A57T/Q96E/L100M,nd / 4.11 / nd,1 of 9 (3.36)
V29M/S33L/R34E,0.40 / 0.54 / 0.63,1 of 9 (4.13)

7 of these entries, quoted again:

changes	log10 Kd (nM) by replicate	empty controls
S25K/S33T/N37H	nd / nd / nd	0 of 9
R34V/Q95T/P101C	nd / nd / nd	1 of 9 (3.64)
S33C/P101E/S103A	nd / nd / 4.14	3 of 9 (4.53)
V29M/S33L/R34E	0.40 / 0.54 / 0.63	1 of 9 (4.13)
S25G/N35F/S62C	2.66 / 2.77 / 2.63	4 of 9 (3.87)
W56E/Q96T/L102D	0.01 / 0.38 / 0.19	1 of 9 (5.28)
S25M/Q27D/V29G	0.12 / 0.47 / 0.24	0 of 9